# Data as given in PubChem BioAssay AID1813 (Broad Institute, 2009).
# The list shows a part of the results, in another mix than the full data. Calls of active or inactive are those of the source. No stated cut-off is given here; in the data, active means inhibition above about 60%; inconclusive means no clear call, values can overlap the other calls; inactive means below that.
# Test: MLPCN primary screen, SNCA 5' untranslated region (AID 1813);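 further: H4 neuroglioblastoma cells stably carrying SNCA 5'UTR luciferase fusion; 0% = DMSO wells and 100% = positive control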
# Conditions: alpha-synuclein 5'UTR reporter, inhibitor activity; active compounds read high; tested at 7.5 µM
row,Compound,inhibition
1,CCc1cc(C(=O)NCC2(N3CCCCC3)CCCCC2)sc1C,inactive: -2.82%
2,O=C(OC1CN2CCC1CC2)C1c2ccccc2C=Cc2ccccc21 (centres undefined),inactive: 17.9%
3,N/C(=N\O)c1c(N)no[n+]1[O-],inactive: 5.6%
4,CCOC(=O)N1CCC(Nc2ccc(C)cc2)CC1,inactive: -3.64%
5,COc1ccc(C(=O)NCC2(N3CCOCC3)CCCCC2)cc1OC,inactive: 9.98%
6,c1ccc(CN2CCC(Nc3ccccc3)CC2)cc1,inactive: 3.88%
7,CCCN1CCC(Nc2cc(OC)cc(OC)c2)CC1,inactive: -13.8%
8,CN(C)C1(CNC(=O)c2cccc(C#N)c2)CCCCC1,inactive: -8.61%
9,CC(C)(C)OC(=O)N1CCC(N(C(=O)c2ccccc2)c2ccc(Cl)cc2)CC1,inactive: 1.92%
10,N#Cc1ccc(C(=O)NCC2(N3CCCCC3)CCCCC2)cc1,inactive: 10.7%
11,CN(C)c1ccc(C(=O)NCC2(N3CCCCC3)CCCCC2)cc1,inactive: -16.5%
12,CCN1CCC(Nc2cccc(F)c2)CC1,inactive: 13.8%
13,Cc1ccc(C(=O)NCC2(N3CCCCC3)CCCCC2)o1,inactive: 11.6%
14,Fc1ccccc1NC1CCN(Cc2ccccc2)CC1,inactive: 15.7%
15,COc1cc(OC)cc(C(=O)NCC2(N3CCCCC3)CCCCC2)c1,inactive: 2.75%
16,CCCOc1ccc(C)cc1CN(CCCl)CCCl,inactive: -10.8%
17,CN1CCC(Nc2ccc(Cl)cc2)CC1,inactive: 6.43%
18,CCC(CO)(C(=O)OC1CN2CCC1CC2)c1ccccc1 (centres undefined),inactive: -14.8%
19,COc1cc(OC)cc(C(=O)NCC2(N3CCOCC3)CCCCC2)c1,inactive: -7.68%
20,COc1cccc(C(=O)N(c2cc(C)cc(C)c2)C2CCN(C(=O)OC(C)(C)C)CC2)c1,inactive: 38.8%

row,Compound,inhibition
1,CCCOc1ccc(C(=O)NCC2(N(C)C)CCCCC2)cc1,inactive: 0.994%
2,CC(C)(C)OC(=O)N1CCC(Nc2ccccc2)CC1,inactive: -8.53%
3,O=C(O)C1(Nc2ccccc2)CCN(Cc2ccccc2)CC1,inactive: -9.77%
4,CCOc1ncccc1C(=O)NCC1(N2CCOCC2)CCCCC1,inactive: 18.1%
5,CN1CCC(Nc2ccc(F)c(Cl)c2)CC1,inactive: 4.26%
6,CCOC(=O)N1CCC(Nc2ccc(OC)cc2)CC1,inactive: -4.95%
7,N#CC1(Nc2ccccc2)CCN(Cc2ccccc2)CC1,inactive: -8%
8,O=C(OC1CN2CCC1CC2)C1c2ccccc2Oc2ccccc21 (centres undefined),inactive: -4.29%
9,O=C(NCC1(N2CCOCC2)CCCCC1)c1cc2ccccc2o1,inactive: -20.4%
10,O=C(NCC1(N2CCCCC2)CCCCC1)c1ccc(Cl)nc1,inactive: -21.1%
11,Cc1cc(C)cc(N(C(=O)c2ccccc2)C2CCN(C(=O)OC(C)(C)C)CC2)c1,inactive: 34%
12,CSc1ccccc1C(=O)NCC1(N2CCCCC2)CCCCC1,inactive: 17%
13,O=C(NCC1(N2CCCCC2)CCCCC1)c1ccc(=O)[nH]c1,inactive: -12.9%
14,O=C(NCC1(N2CCCCC2)CCCCC1)c1cccs1,inactive: 0.338%
15,COc1ccc(C(=O)NCC2(N3CCCCC3)CCCCC2)cc1,inactive: -8.69%
16,CC(C)(C)OC(=O)N1CCC(N(C(=O)c2ccccc2)c2ccc(F)cc2)CC1,inactive: 11.6%
17,COc1ccc(C(=O)NCC2(N3CCCCC3)CCCCC2)c(OC)c1OC,inactive: -4.48%
18,CCOC(=O)N1CCC(Nc2cccc(C)c2)CC1,inactive: -9.04%
19,COc1cc(C(=O)NCC2(N(C)C)CCCCC2)ccc1OC(F)F,inactive: -21.6%
20,Cc1ccc(OCC(C)C)c(CN(CCCl)CCCl)c1,inactive: -12.3%

row,Compound,inhibition
1,O=C(NCC1(N2CCCCC2)CCCCC1)c1ccc(F)cc1,inactive: -18.5%
2,COc1ccc(NC2CCN(CCc3ccccc3)CC2)c(OC)c1,inactive: 15.5%
3,CCOC(=O)N1CCC(Nc2ccc(F)cc2)CC1,inactive: -29.3%
4,CCOc1ccc(C)cc1CN(CCCl)CCCl,inactive: 4.47%
5,CN1CCN(CCOC(=O)C(O)(c2ccccc2)c2ccccc2)CC1,inactive: -12.5%
6,COc1ccc(NC2CCN(C(=O)OC(C)(C)C)CC2)cc1,inactive: 13.4%
7,COc1cc(C(=O)NCC2(N3CCCCC3)CCCCC2)ccc1OC(F)F,inactive: 1.98%
8,O=C(NCC1(N2CCOCC2)CCCCC1)c1cc(=O)[nH]c2ccccc12,inactive: -0.527%
9,O=C(NCC1(N2CCCCC2)CCCCC1)c1cccc(C(F)(F)F)c1,inactive: -12%
10,O=C(NCC1(N2CCCCC2)CCCCC1)c1cccc([N+](=O)[O-])c1,inactive: -0.214%
11,CCN1CCC(Nc2ccc(Cl)cc2)CC1,inactive: 6.14%
12,N#CC1(Nc2ccccc2)CCN(CCc2ccccc2)CC1,inactive: 1.22%
13,O=C(NCC1(N2CCCCC2)CCCCC1)c1ccc(OC(F)F)cc1,inactive: -13.6%
14,CCCOc1ccc(C(=O)NCC2(N(C)C)CCCCC2)cc1OC,inactive: -4.04%
15,CN1CCC(Nc2cccc(F)c2)CC1,inactive: -21.1%
16,COc1cc(OC)c(C(=O)NCC2(N(C)C)CCCCC2)cc1OC,inactive: 3.37%
17,COc1ccc(CN(CCCl)CCCl)cc1Cl,inactive: 10.4%
18,CN(C)c1cccc(C(=O)NCC2(N3CCCCC3)CCCCC2)c1,inactive: -8.74%
19,CC(C)c1ccc(NC2CCN(C(=O)OC(C)(C)C)CC2)cc1,inactive: -72.9%
